According to US20050118564A1, “Methods and compositions for identification and therapeutic use of genes involved in vascular and proliferative diseases” (priority 2002, published 2005):

Columns and labels:
[1] = system: Human aortic endothelial cells (HAEC); experiment: MCP-1 secretion by human aortic endothelial cells exposed to disease stimuli (ELISA); type: cell-based; settings: 16 hrs, stimulus alone: 1 ng/ml TNF-α, 1 nM insulin or 100 μg/ml glycated HSA
Method: Human aortic endothelial cells (HAEC) were grown with culture medium (Basal medium from Clonetics) containing 0.2% albumin with or without 1 ng/ml TNF-α or 100 μg/ml glycated-human serum albumin (HAS) or 1 nM insulin for 16 hrs. Media were collected and the amounts of […] (DuoSet ELISA development kit—R&D Systems) and MCP-1 (Quantiline Human MCP-1 kit—R&D Systems) were measured. VCAM-1 expression was measured by incubating […] with a polyclonal goat anti-human VCAM-1 antibody (R&D Systems, 1:1000 dilution) followed by development with a rabbit anti-goat IgG-conjugated with horseradish peroxidase (HRP).

[2] = system: Endothelial and smooth muscle cells grown together; experiment: IL-6 expression in co-cultures of endothelial and smooth muscle cells; type: cell-based; settings: endothelial and smooth muscle cells mixed (1:1, 1:2, 1:4) or layered; TNFα 1 ng/ml
Method: Endothelial and smooth muscle cells were grown together in culture media (Basal medium from Clonetics) containing 0.2% albumin. The cells had either nothing added, 1ng/ml TNFα, 1 nM insulin or TNFα and insulin. The media were collected and the amount of IL-6 and MCP-1 was measured. […] This induction was seen both under conditions where endothelial and smooth muscle cells were mixed at different ratios (1:1, 1:2 and 1:4) or when smooth muscle cells were layered over endothelial cells to simulate blood vessel conditions in culture. The induction was more pronounced in the blood vessel-like culture model.

G-HSA: glycated human serum albumin, disease stimulus, 100 μg/ml
increase in MCP-1 secretion [1]: about 60%
stimulus-induced IL-6 expression in co-culture versus cells cultured separately [2]: neither interleukin-1 nor glycated albumin/advanced glycation end products (AGE) showed enhanced induction
